Measured values published in ChEMBL document CHEMBL1140914, “Synthesis and in vitro and in vivo evaluation of 18F-labeled positron emission tomography (PET) ligands for imaging the vesicular acetylcholine transporter” (J Med Chem, 2009).

test: Selectivity ratio of Ki for human vesicular acetylcholine transporter to Ki for sigma1 receptor in guinea pig brain membrane; assay type: cell membranes

| Ratio Ki | SMILES |
| --- | --- |
| 71 | O=C(c1ccc(F)cc1)C1CCN([C@@H]2Cc3ccccc3C[C@H]2O)CC1 (racemic) |
| 160 | O=C(c1ccc(F)cc1)C1CCN([C@@H]2Cc3ccccc3C[C@H]2O)CC1 (stereo in doubt; (-)-9e) |
| 1.7 | O=C(c1ccc(F)cc1)C1CCN([C@@H]2Cc3ccccc3C[C@H]2O)CC1 (stereo in doubt; (+)-9e) |
